These results are taken from patent US5104858A, “Sensitizing multidrug resistant cells to antitumor agents” (priority 1988, dated 1992).

Assay [1] concerns MCF-7/DOX cells. As to the kind of experiment: Antagonism of multidrug resistance (sensitization to doxorubicin) in MCF-7/DOX cells, MDR Ratio. Format: cell-based, human. The following applies: 0-100 μM doxorubicin, 48 h, modifier at concentration alone producing 10% growth inhibition.
In assay [2] the test system is MCF-7/DOX cells. As to the kind of experiment: Inhibition of MCF-7/DOX cell growth, microtiter methylene blue staining assay, 48 h. Format: cell-based, human. Conditions: read-out: Cell Growth Inhibition IC50 (Table 5), structurally related compounds.
The next assay has as its target Calmodulin (Bos taurus, UniProt P62157). The experiment in a line: Inhibition of calmodulin-induced activation of phosphodiesterase. The following applies: read-out: Calmodulin IC50; inhibition by 50% of calmodulin-induced activation of phosphodiesterase.

pIC50: −log10 of the molar value. This is a selection: effects in other tests are not listed, and their absence says nothing.

For `O=c1[nH]c2ccccc2n1C1CCN(CCCCc2ccc(F)cc2)CC1`, the “MDR Ratio (IC50 doxorubicin alone / IC50 doxorubicin in presence of modifier)” value in the assay on MCF-7/DOX cells [1] is given as 1.1. Moreover, the pIC50 in the assay on MCF-7/DOX cells [2] was 4.57; at Calmodulin, 4.40.
